The numbers were not newly measured in US20100197717A1, “COMBINATION OF A 5HT7 RECEPTOR LIGAND AND AN OPIOID RECEPTOR LIGAND” (priority 2007, published 2010), which cites them from elsewhere.

By UniProt entry, the sequences of proteins in these tests, tags left out.
UniProt P08908, whole entry: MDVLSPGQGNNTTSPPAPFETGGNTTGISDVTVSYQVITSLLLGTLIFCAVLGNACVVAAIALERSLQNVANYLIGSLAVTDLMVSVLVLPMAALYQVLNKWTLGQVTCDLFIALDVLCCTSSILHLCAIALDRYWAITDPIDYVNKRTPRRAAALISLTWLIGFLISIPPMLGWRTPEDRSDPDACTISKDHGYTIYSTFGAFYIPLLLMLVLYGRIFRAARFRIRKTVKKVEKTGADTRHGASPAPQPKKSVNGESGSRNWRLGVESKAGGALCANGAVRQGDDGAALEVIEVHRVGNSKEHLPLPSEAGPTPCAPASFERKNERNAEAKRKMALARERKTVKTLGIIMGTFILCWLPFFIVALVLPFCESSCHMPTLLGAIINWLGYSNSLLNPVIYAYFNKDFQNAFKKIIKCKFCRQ
UniProt P34969, whole entry: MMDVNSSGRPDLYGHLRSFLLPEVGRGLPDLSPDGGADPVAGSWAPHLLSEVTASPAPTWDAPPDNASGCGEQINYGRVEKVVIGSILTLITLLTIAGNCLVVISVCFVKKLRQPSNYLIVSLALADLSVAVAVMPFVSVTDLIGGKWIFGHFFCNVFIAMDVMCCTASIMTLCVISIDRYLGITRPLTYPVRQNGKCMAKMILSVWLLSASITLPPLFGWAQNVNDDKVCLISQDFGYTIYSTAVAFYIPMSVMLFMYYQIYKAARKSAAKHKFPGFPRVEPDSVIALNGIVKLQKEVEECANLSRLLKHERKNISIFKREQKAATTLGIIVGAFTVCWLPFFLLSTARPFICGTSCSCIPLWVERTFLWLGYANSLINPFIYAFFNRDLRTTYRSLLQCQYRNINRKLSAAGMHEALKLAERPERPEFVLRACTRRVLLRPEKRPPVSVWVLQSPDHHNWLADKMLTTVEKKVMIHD

One data set deals with 5-HT1A receptor (Homo sapiens, UniProt P08908). The note with it: statement in the description; cited from earlier work.
For the next data set, the target named is 5HT7 receptor (Homo sapiens, UniProt P34969). The note with it: statement in the definitions; cited from earlier work.

Turning to `CCCN(CCC)C1CCc2cccc(O)c2C1` (centres unmarked) [8-OH-DPAT], on 5-HT1A receptor, the “affinity for the 5-HT1A receptor compared with 5-HT7” value was “clearly higher affinity”.

In the case of `NCCc1c[nH]c2ccc(C(N)=O)cc12` [5CT, 5-carboxamidotryptamine], the “agonist classification on the 5-HT7 receptor” value at 5HT7 receptor is “Full agonists”.
